Laboratory results as given in US20050227220A1, “Compositions and Methods for Evaluating and Designing Nuclear Receptor Ligands that Modulate Co-Regulator Affinity” (priority 2002, published 2005).

Amino acid sequences for entries named in this document (tags omitted). Residues count along the entry.
UniProt P37231, 234-505: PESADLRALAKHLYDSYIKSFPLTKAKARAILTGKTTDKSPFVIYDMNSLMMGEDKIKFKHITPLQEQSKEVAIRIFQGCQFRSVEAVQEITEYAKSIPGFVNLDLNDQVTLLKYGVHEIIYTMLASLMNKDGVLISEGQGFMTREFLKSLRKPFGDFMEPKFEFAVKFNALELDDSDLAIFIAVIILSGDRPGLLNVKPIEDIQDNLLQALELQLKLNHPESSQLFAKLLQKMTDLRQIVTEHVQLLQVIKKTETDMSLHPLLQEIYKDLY

Assays:
[1] = biological target: PPARγ ligand binding domain (Homo sapiens, UniProt P37231); test: Surface plasmon resonance: effect of compounds on co-repressor peptide binding to PPAR LBD; settings: SPR equilibrium response, immobilized biotinylated peptides
PPARγ LBD = biological target: T1, PPARγ LBD (Homo sapiens, UniProt P37231); test: FRET assay: ligand effect on CBP fragment / NCoR ID-C binding to PPAR LBD; assay type: biochemical; settings: 10 nM PPAR LBD, CBP (57-454)
T1 construct: made in house; host or cells: bacterial BL21-DE3, vector pRSETA
Description: The experimentally determined α value is the ratio of cofactor affinities in the presence and absence of a saturating concentration of ligand. This analysis permits a direct comparison of the effects of compounds, independent of cofactor concentration and differences in coregulator affinity for the individual receptors. […] 98(9): p.
The effects of the coregulator environment on the apparent affinities and selectivities of various ligands were than examined. Experimentally determined pKs and the α values derived from the FRET assay were used to calculate the apparent affinity of the ligand for the receptor/cofactor complex (i.e. K/α).
FIG. 5 illustrates the effect of ligands on coactivator and corepressor binding to PPAR subtypes determined by FRET.

CN(CCOc1ccc(C[C@H](Nc2ccccc2C(=O)c2ccccc2)C(=O)O)cc1)c1ccccn1 [GW1929]
effect on binding of PPARγ LBD to the NCOR- and SMRT-derived co-repressor peptides [1]: decreased the binding | effect on apparent affinity of PPARγ for the co-activator fragment from CBP (PPARγ LBD): increased the apparent affinity
